Measurements taken from US20220143224A1, “MRI CONTRAST AGENT FOR USE IN THE DIAGNOSIS OF EARLY CHANGES IN THE ENDOTHELIUM OF BLOOD VESSELS” (UNIWERSYTET JAGIELLONSKI, priority 2019, published 2022).

Test system: endothelial permeability in brachiocephalic artery (BCA) in ApoE/LDLR−/− mice
Experiment: In vivo MRI assessment of endothelial permeability (Npx50) in brachiocephalic artery
Details: 28-week-old ApoE/LDLR−/− mice, T1 before and 30 min after iv CA
Protocol: The experiments were performed using female ApoE/LDLR−/− mice of different ages: 4-, 6-, 8-, 12- and 28-week-old(19) in comparison to control young (8-week-old) mice (C57BL/6) without endothelial dysfunction. All mice (body weight 20-30 g) were housed under standard pathogen-free conditions (LD: 12/12, humidity: 60%, temperature: 23° C.).
MRI experiments were carried out using a 9.4 T scanner (BioSpec 94/20 USR, Bruker, Germany). During the experiment, mice were anesthetized using isoflurane (Aerrane, Baxter Sp. z o.o., Poland, 1.5% by volume) in an oxygen and air mixture (1:2). Cardiac activity, respiration rate and body temperature (maintained at 37° C., using circulating warm water) were monitored using Monitoring and Gating System (SA Inc., Stony Brook, N.Y., USA). […]
Endothelial permeability measurements were performed using two gadolinium contrast agents (CA); reference gadolinium albumin binding contrast agent (Galbumin, BioPAL, Worcester, Mass., USA—25 mg/mL, 4.5 mL/kg, iv) and new preparation according to the invention—Gd-diethylenetriaminepentaacetate-bis(methylamide) placed inside liposomes. Relaxation time (T1) before and 30 min after intravenous CA administration was measured to assess BCA permeability using the VFA technique(20), by sampling the signal using varying values of flip angles (FA), and then fitting the result to the expected T1-dependent signal model(21). […]

In the case of “GD albumin: reference gadolinium albumin binding contrast agent (Galbumin, BioPAL, Worcester, Mass., USA)”, the Npx50 increase is reported as “about 100%”.
